Biological target: T1, Acyl-CoA:cholesterol acyltransferase (Oryctolagus cuniculus, UniProt Q95214)
T1 sequence (Q95214 whole entry): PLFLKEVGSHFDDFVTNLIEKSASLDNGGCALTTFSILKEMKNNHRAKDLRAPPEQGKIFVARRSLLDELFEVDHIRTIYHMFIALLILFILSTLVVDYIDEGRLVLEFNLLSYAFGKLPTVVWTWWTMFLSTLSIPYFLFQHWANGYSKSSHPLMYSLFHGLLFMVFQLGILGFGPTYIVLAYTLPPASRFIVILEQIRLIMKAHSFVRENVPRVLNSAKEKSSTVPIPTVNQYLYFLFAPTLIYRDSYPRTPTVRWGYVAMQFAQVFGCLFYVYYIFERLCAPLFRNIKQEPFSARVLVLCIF
Experiment: Inhibition of normocholesterolemic rabbit liver ACAT
Outline: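 Liver from normocholesterolemic male Japanese White rabbits homogenized in sucrose/phosphate/EDTA/dithioerythritol buffer pH 7.4. Microsomes collected by 12000g then 105000g spins. Microsomes in 154 mM phosphate pH 7.4 with BSA, preincubated 5 min at 37 °C with compound. Then 30 nmol [1-¹⁴C]oleoyl-CoA added, 20 min at 37 °C. Cholesteryl ester extracted and separated by TLC. IC50 from duplicate tubes, mean of 3-5 experiments.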

| IC50 [nM] | Compound |
| --- | --- |
| 1100 | CCCCCCCCN1CCc2c(C)c(CN)c(C)c(NC(=O)C(C)(C)C)c21 |
| 120 | CCCCCCCCN1CCc2c(C)cc(C)c(NC(=O)C(C)(C)C)c21 |

Source: ChEMBL document CHEMBL1155847, “Novel indoline-based acyl-CoA:cholesterol acyltransferase inhibitor with antiperoxidative activity: improvement of physicochemical properties and biological activities by introduction of carboxylic acid” (J Med Chem, 2008)
